# Antibody variant affinities, Ab-14 light chain, assay B

Reference: Li et al. 2023, doi:10.1038/s41467-023-39022-2. File: FLAb, binding data.

Target peptide (SARS-CoV-2 spike, HR2 region): PDVDLGDISGINAS

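The starting antibody came from a phage panning campaign against this peptide. The variants were designed computationally from a first round of random CDR variants and then made and measured. Several design methods are mixed in this list. AlphaSeq pools MATa yeast showing the antibodies with MATalpha yeast showing the peptide. Pairs that bind mate more often; barcode pairs of the diploids are counted by sequencing. Read counts were normalised to the haploid input and turned into Kd by a linear fit to BCL2-family pairs of known affinity, for each replicate. The assay was run in six technical replicates.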

Parent: Ab-14, a human scFv built as VH, a (GGGGS)3 linker, VL. Only the CDRs of the light chain vary.
VH: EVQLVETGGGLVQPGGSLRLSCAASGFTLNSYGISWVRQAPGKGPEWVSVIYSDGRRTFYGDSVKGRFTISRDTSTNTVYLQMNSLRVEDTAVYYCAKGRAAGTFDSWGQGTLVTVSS
VL: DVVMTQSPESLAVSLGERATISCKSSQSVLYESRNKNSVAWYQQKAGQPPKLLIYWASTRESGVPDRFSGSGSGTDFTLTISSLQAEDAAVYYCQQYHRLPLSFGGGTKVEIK

The parent's light chain CDRs are KSSQSVLYESRNKNSVA, WASTRES, QQYHRLPLS; each variant's own CDRs replace them letter for letter. Scale: log10 of Kd in nM, estimated from mating counts; low values are strong binders. Averages over replicates are reported, and they cover detected replicates only. Where no diploid with the target was found in any replicate, the entry reads "no signal": below detection, most likely a poor binder, though not proof of it. Three control strains display no target. For all light chain designs, 4% of the pairings with them gave a signal, with a median of 2.64 and one signal in twenty below 1.59, so weak values seen in few replicates may be background. The parent sequence was in this pool as ten entries: three were never detected, three once, and four in most replicates, with averages from 0.34 to 2.37. In the paper, a design with two or fewer of six values counts as a poor binder. A sequence measured in both rounds can read differently, since the two assays cover different ranges.

| # | CDR-L1 | CDR-L2 | CDR-L3 | mean, log10 nM | detected |
|---|---|---|---|---|---|
| 1 | AISEHAFYGQRDENGIA | GADVRAK | QQYWRLPLT | 0.80 | 6/6 |
| 2 | KCSQYVDRESRNKNSVA | WASTREV | QQYHRLPLS | 1.30 | 6/6 |
| 3 | KSSQSVLYESRNKNSVA | MASTRES | QTYHRLPLS | no signal | 0/6 |
| 4 | KISMLQRYESQVKNNIA | EMSRREE | QQYHRLPLS | 0.30 | 6/6 |
| 5 | KLHQSTLYESRNKNSVA | AASTRES | QQYHRLPLS | 0.19 | 6/6 |
| 6 | KLRQSQLYESRNKNSVA | LASTRES | QQYHRLPLS | 0.60 | 6/6 |
| 7 | KSQQSWEYESRNKNSVA | HASTRED | QQYHRLPLS | 0.31 | 6/6 |
| 8 | KSSQSVLYESANKNSVA | WASTRES | QQHHRIPLS | no signal | 0/6 |
| 9 | KLPQSTLYESRNKNAVA | NASTRES | QQYHRLPLS | 0.74 | 6/6 |
| 10 | KLAQSVLYESRNKNSVA | NASQRES | QQYHRLPLS | -0.22 | 6/6 |
| 11 | SIYDATLMESRNKNPIA | DVSTRPS | QQYHRLPLS | 0.24 | 6/6 |
| 12 | ALGQSMDMTSRNVNSVA | DLTTREN | QQYHRLPLS | 0.14 | 6/6 |
| 13 | QISGITGHMSTIKNNVA | EMVTRAN | QQYERLPLS | 0.67 | 6/6 |
| 14 | KSGCGVLQESRNKNSVA | GASTRES | QQYHRLPLS | 0.06 | 6/6 |
| 15 | KLLQSMLYESRNKNSVA | NASQRES | QQYHRLPLS | 0.13 | 6/6 |
| 16 | SITQLVAYGQRNKNSVA | QMSTRES | QQYDRLPLS | 1.07 | 6/6 |
| 17 | KVSQSAWMEERNFNSVA | NASTRES | QQYHRLPLS | -0.04 | 6/6 |
| 18 | KLSGSHLYESRNKNSVA | NASTRES | QQYHRLPLS | -0.33 | 6/6 |
| 19 | KVSPSDLYESRNKNSVA | EASTRES | QQYHRLPLS | no signal | 0/6 |
| 20 | IVSQLMIWGMHVKNSIA | EAEQRLN | QQYERLPLF | 1.43 | 6/6 |
| 21 | KIHISELYEDRNKNSVA | SASQRLE | QQYHRLPLS | 0.00 | 6/6 |
| 22 | KIGHGLTTESRNRNSVA | QTETRVS | QHYHRLPLS | -0.06 | 6/6 |
| 23 | KVSQSVLYESRVKNSVA | DASTRES | QQYHRLPLS | -0.05 | 6/6 |
| 24 | KSSQGVLYESRVKNSVA | GASTRES | QQYHRLPLS | 0.48 | 6/6 |
| 25 | KSMQSVLAESPNKNSVA | QASTRES | QQYHRLPLS | 0.12 | 6/6 |
| 26 | HITHGMYVKGRHHSSIA | QAETRAK | QQYDRLPLI | no signal | 0/6 |
| 27 | KVQQLEPYESRNKNSVA | NASTREE | QQYHRLPLS | 0.27 | 6/6 |
| 28 | KSSQSVLYESRNKNSVA | SASTRES | QQDHRLPLS | 1.60 | 6/6 |
| 29 | KLSQSYHYESRNKKSVA | GASTRES | QQYHRLPLS | 0.83 | 6/6 |
| 30 | RLSQTHGGYEKMMNNIA | QGSQKQF | QSYDRLPLS | 1.35 | 5/6 |
| 31 | HSSPSVLYESRNKNSVA | NASTRED | QQYHRLPLQ | -0.10 | 6/6 |
| 32 | KSSQSVVYESRNKNSVA | EASTRES | QQYHRLPLS | 0.34 | 6/6 |
| 33 | YMSGQIDGGWNQQEAIA | QVTYKED | QQYYHLPLS | 2.09 | 1/6 |
| 34 | KSSQSWLYESRNKNSVA | GASCREV | QQYHRLPLS | 0.24 | 6/6 |
| 35 | HVEHASLESNATMNSVA | NEACLAD | QQYHRLPLA | 0.53 | 6/6 |
| 36 | KSPQSVLYESRNKNSVA | WASTRSS | QQYHWLPLS | 1.88 | 1/6 |
| 37 | KLSQSVLYEDRNKNAVA | NASQRES | QQYHRLPLS | -0.04 | 6/6 |
| 38 | ILSQMLLTAGNKHNSVA | QANNRES | QQYHRLPLS | 1.77 | 6/6 |
| 39 | KSSQSVLYESDNKNSVA | WASTRES | QQYHRIPLS | 2.01 | 1/6 |
| 40 | QLGWVQSGDTLSQGAIA | HAAELVD | QQYFRLPLL | 0.78 | 6/6 |
| 41 | KHYPSYLYESRNKNSVA | QASTRES | QQYHRLPLS | 0.45 | 6/6 |
| 42 | KQSQSVLYEQVNKNSVA | DASTRMS | QQYHRLPLS | no signal | 0/6 |
| 43 | KLSMVTGHMSMSRNNVA | EMVTREN | QQYDRLPLS | 0.69 | 6/6 |
| 44 | KSSYGVLHESVNSNSVA | SASTRES | QQYHRLPLS | -0.04 | 6/6 |
| 45 | LIETLSQGMRLNWSAVA | EAHTLVQ | QYYARLPLS | no signal | 0/6 |

Excerpt, the final 6 entries:

CDR-L1,CDR-L2,CDR-L3,"mean, log10 nM",detected
QLGWVQSGDTLSQGAIA,HAAELVD,QQYFRLPLL,0.78,6/6
KHYPSYLYESRNKNSVA,QASTRES,QQYHRLPLS,0.45,6/6
KQSQSVLYEQVNKNSVA,DASTRMS,QQYHRLPLS,no signal,0/6
KLSMVTGHMSMSRNNVA,EMVTREN,QQYDRLPLS,0.69,6/6
KSSYGVLHESVNSNSVA,SASTRES,QQYHRLPLS,-0.04,6/6
LIETLSQGMRLNWSAVA,EAHTLVQ,QYYARLPLS,no signal,0/6